{
  "source": "patent US20120058099A1",
  "about": "“USE OF HYPOXANTHINE FOR PROMOTION OF NEURONAL OUTGROWTH” (CHILDREN'S MEDICAL CENTER CORPORATION, priority 2009, published 2012)",
  "system": "embryonic cortical neurons",
  "assay": "Embryonic cortical neuron axonal outgrowth with or without BCX-34 (FIG. 2)",
  "type": "cell-based, rat",
  "method": "These experiments were done on embryonic cortical neurons. The forebrains of […] rat pups were dissected and plated in media containing serum. After 3 hours the medium was exchanged for Medium E (Irwin et al. 2006) (Proc Nati Acad Sci U S A. 2006 Nov 28;103(48):18320-5). The cells were treated the following day with inosine or hypoxanthine, in the presence and absence of the indicated amount of the inhibitor 6-thioguanine (6-TG), and allowed to grow for 3 days. The 6-TG was added 1 hour before the hypoxanthine or inosine. Following the three days of growth, the cells were fixed and stained with Taul antibody and a fluorescent secondary antibody. Axons were then counted. […] FIG. 1 presents the data obtained.\nIn a similar experiment, embryonic cortical neurons were given brain derived neurotrophic factor (BDNF) (2 ng/ml), inosine, or hypoxanthine (100 μM). […] The cells were then scored for neuron axonal outgrowth. The data collected is represented in FIG. 2.",
  "data": [
    {"smiles": "Nc1nc2c(Cc3cccnc3)c[nH]c2c(=O)[nH]1", "note": "[BCX-34]", "values": [
      {"measurement": "effect of BCX-34 on growth of cells exposed to hypoxanthine", "setting": "BCX-34 50 μM added 1 hour before hypoxanthine 100 μM", "result": "did not negatively impact the growth of cells exposed to hypoxanthine"},
      {"measurement": "effect of BCX-34 on axon outgrowth of cells exposed to inosine", "setting": "BCX-34 50 μM added 1 hour before inosine", "result": "blocked axon outgrowth of cells exposed to inosine"}
    ]}
  ]
}
